Measurements from ChEMBL document CHEMBL4007427, “Inhibition of the Aldehyde Dehydrogenase 1/2 Family by Psoralen and Coumarin Derivatives” (J Med Chem, 2017).

How the values were obtained:
[1] = target: T1, Aldehyde dehydrogenase, dimeric NADP-preferring (Homo sapiens) (UniProt P30838); test: Inhibition of full length recombinant human ALDH3A1 expressed in Escherichia coli BL21(DE3) assessed as remaining dehydrogenase activity by measuring NAD(P)H level at 10 uM preincubated for 2 mins followed by addition of propionaldehyde as substrate in presence of NAD+ by spectrophotometric method
T1 sequence (whole entry): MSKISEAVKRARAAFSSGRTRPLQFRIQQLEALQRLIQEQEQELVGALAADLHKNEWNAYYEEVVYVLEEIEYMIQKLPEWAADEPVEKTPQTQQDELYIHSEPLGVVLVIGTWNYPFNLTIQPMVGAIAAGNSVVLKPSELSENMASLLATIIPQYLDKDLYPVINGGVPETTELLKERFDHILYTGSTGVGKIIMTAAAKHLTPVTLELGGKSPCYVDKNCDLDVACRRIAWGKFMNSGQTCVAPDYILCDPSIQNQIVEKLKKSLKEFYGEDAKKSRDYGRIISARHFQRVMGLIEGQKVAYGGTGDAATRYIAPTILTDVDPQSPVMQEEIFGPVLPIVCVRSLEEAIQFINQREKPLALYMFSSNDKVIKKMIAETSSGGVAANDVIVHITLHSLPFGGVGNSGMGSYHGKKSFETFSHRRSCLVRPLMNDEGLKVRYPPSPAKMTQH

[2] = target: T2, Aldehyde dehydrogenase, mitochondrial (Homo sapiens, UniProt P05091)
T2 sequence (P05091 whole entry): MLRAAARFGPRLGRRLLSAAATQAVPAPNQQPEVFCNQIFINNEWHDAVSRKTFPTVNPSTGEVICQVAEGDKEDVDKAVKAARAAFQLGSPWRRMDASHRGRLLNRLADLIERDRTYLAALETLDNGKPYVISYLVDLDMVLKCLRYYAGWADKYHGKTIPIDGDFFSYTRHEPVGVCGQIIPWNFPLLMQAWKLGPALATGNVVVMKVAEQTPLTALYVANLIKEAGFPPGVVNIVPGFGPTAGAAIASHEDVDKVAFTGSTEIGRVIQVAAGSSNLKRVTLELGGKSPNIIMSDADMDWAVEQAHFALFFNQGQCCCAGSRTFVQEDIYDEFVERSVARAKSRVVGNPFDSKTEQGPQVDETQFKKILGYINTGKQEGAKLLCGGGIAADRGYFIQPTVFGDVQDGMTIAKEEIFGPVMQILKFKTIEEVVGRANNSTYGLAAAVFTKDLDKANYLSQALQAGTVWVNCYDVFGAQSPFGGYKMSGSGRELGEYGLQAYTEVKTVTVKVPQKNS

[3] = target: T2, Aldehyde dehydrogenase, mitochondrial; remark: listed apart in the source

SMILES | Activity [1] | Ki [2] | Ki [3]
COC(=O)C(C)Oc1ccc2c(C)cc(=O)oc2c1 (stereo not drawn) | 94.5% | – | –
Cc1oc2cc3oc(=O)c(C)c(C)c3cc2c1C | – | 35 nM | 87 nM
